Results: patent publication US6699896B1, “Oxazole-aryl-carboxylic acids useful in the treatment of insulin resistance and hyperglycemia” (Wyeth, priority 1998, dated 2004)

Amino acid sequences for entries named in this document (tags omitted). A change or cut given only in a name is not applied to a line headed by its entry.
UniProt P18031: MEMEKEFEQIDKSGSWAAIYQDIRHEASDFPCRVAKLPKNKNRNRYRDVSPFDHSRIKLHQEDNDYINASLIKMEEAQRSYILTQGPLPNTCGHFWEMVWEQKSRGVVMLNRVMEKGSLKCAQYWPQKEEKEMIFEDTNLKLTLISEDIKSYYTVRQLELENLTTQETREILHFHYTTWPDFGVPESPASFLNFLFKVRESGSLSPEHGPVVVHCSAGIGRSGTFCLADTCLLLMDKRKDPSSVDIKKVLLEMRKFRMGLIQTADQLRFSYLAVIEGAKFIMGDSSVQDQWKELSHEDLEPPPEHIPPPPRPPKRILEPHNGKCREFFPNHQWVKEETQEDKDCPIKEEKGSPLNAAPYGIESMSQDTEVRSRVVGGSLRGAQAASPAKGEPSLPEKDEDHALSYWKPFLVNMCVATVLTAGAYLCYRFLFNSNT

What was measured:
[1] = tested on: rat hepatic microsomal PTPases; assay: Inhibition of tri-phosphorylated insulin receptor dodecaphosphopeptide dephosphorylation by rat hepatic PTPases; conditions: PTPase activity, compound at 50 μM, rat liver microsomes
Human recombinant PTP1B = Human recombinant PTP1B (Homo sapiens, UniProt P18031); assay: Inhibition of tri-phosphorylated insulin receptor dodecaphosphopeptide dephosphorylation by hPTP1B; format: biochemical

Substance | % Change from Control [1] [%] | IC50 (Human recombinant PTP1B; recombinant PTP1B, malachite green phosphate detection) [µM] | percent of phosphatase control (change) at single concentration (Human recombinant PTP1B; compound at 2.5 uM)
Phenylarsine oxide | −57 | 39.7 | 
{3′-5-Methyl-2-(4-trifluoromethyl-phenyl)-oxazol-4-yl]-biphenyl-4-yloxy}-acetic Acid | −30 |  | −47 (2.5 uM) %
